We go through one molecule from patent US20210388112A1.

This test addresses T1, fusion protein of a peptide fragment containing the trastuzumab-binding region of HER2 (HER2-Tras-binding fragment) and glutathione S-transferase (GST).
T1 chain: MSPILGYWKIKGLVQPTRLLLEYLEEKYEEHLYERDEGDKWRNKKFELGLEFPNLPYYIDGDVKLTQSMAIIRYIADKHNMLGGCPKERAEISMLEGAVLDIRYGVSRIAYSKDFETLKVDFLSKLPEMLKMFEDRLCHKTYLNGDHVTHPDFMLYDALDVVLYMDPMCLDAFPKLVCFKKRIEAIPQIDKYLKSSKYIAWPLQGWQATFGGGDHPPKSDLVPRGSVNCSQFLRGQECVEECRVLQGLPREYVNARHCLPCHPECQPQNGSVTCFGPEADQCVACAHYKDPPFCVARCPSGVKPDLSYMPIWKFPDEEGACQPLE
Put plainly: SPR (Biacore T200), GST-HER2 captured by GST Capture Kit, 25 C. (In general: SPR reads the build-up and loss of mass on a sensor chip optically.)

B1: cyclic Tras-scFv cyclized by an intein (scFv)
scFv: CFNGTHHHHHHAAA[skipping about 120 residues]GGGGSGGGGSGGGGSDIQMTQSPSSLSASVGDRVTITCRASQDVNTAVAWYQQKPGKAPKLLIYSASFLYSGVPSRFSGSRSGTDFTLTISSLQPEDFATYYCQQHYTTPPTFGQGTKVEIKSGSGSS
modifications: not checked
By Kd is commonly meant the free concentration of one partner at which half of the binding sites on the other are occupied at equilibrium, for simple one-to-one binding. A high value points to lower affinity. B1 registered a Kd of 0.59 nM.
